EPAC2 antag – blocks human EPAC2 exchange factor | Q8WZA2 | EPAC2 GEF exchange of Rap1B-BODIPY-GDP, fluorescence | Potency, µM (series often up to 114 µM), usual class: inhibitors | 360,000 tested, 0.18% active; further: nearly all actives have a fitted effect of over 45% in size
EPAC1 agonist – activates human EPAC1 exchange factor; Potency, µM (titrated, usually from 154 µM), most hits filed as activators; 360,000 tested, 0.073% active; EPAC1 agonist qHTS, biochemical assay; response scale: 100% = response to 6.5 mM cAMP; AID 720707; further: nearly all actives have a fitted effect of over 60% in size
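EPAC1 100 nM, Rap1B–BODIPY-GDP 250 nM, unlabeled GDP 50 uM; compound titration; 5 min RT; kinetic read ex480/em540 at 5-min intervals ×30 min; data normalized to 6.5 mM cAMP agonist control.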
EPAC2 ag – agonists of human EPAC2 (RAPGEF4); Potency, µM (doses to about 154 µM), hits mostly activators; AID 720711; 360,000 tested, 0.079% active; Q8WZA2; EPAC2 activation, biochemical qHTS; response scale: 100% = 6.5 mM cAMP response; further: nearly all actives have a fitted effect of over 50% in size
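Setup: EPAC2 100 nM, labeled Rap1B complex 250 nM, free GDP 50 uM. Compound titrations pinned in, brief spin, 5 min room temperature incubation. Kinetic fluorescence read over 30 min, normalized to 6.5 mM cAMP.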
Rango-impB inh – inhibitors of Rango-importin beta complex formation; Q14974; Rango CFP/YFP FRET sensor + importin beta, 45 min; Potency, µM (top dose mostly 92.2 µM); 340,000 tested, 0.031% active; AID 540263; calls by dose curve; further: nearly all actives have a fitted effect of over 15% in size
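FRET biosensor Rango (snurportin 1 IBB between N-terminal EYFP and C-terminal Cerulean), 50 nM in PBS/1 mM DTT/0.02% Tween-20/0.1% BSA, preincubated 5 min RT with compound; 0.125 microM importin beta added, 45 min RT, CFP/YFP FRET ratio read.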
Rango release inh – inhibition of RanGTP-driven Rango-importin beta dissociation. AID 540253. Potency, µM (series often up to 46.1 µM). 340,000 tested, 0.071% active. Biochemical FRET Rango-importin beta, RanGTP-induced dissociation; calls by dose curve; further: nearly all actives have a fitted effect of over 45% in size
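Quantitative HTS using a FRET biosensor: 0.1 uM Rango, 0.25 uM importin beta, 0.6 uM Ran, 2 mM GTP, 0.2 uM RCC1 final, PBS with DTT, Tween-20 and BSA. Post-read taken 45 min after Ran addition.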
EPAC1 antagonist – blocks human EPAC1 exchange factor; O95398; EPAC1 GEF assay, Rap1b-BODIPY-GDP exchange fluorescence; Potency, µM (doses to about 115 µM), actives largely listed as inhibitors; 360,000 tested, 0.14% active; further: nearly all actives have a fitted effect of over 50% in size
Each line names hits and unclear results; the compound was inactive in the other large screens. Most compounds without a hit are left out; they make up all but 0.48% or so of the library. Unless noted, the call rests on the fitted dose curve; in most records, active means well fitted curve in the direction sought with a large enough effect; inconclusive means small, poorly fitted or top-dose-only effect, or another doubt; inactive means no such curve, though single readings can be large; an effect the other way counts as inactive or inconclusive.

O=C(NC[C@@H]1CCCO1)c1cccc2c1C(=O)c1ccc(N3CCOCC3)cc1S2(=O)=O	Rango-impB inh inconclusive
O=C(NCc1cccc(F)c1)c1cccc2c1C(=O)c1ccc(N3CCOCC3)cc1S2(=O)=O	EPAC2 ag 89µM, Rango-impB inh inconclusive
O=C(NC1(O)C(=O)c2ccccc2C1=O)c1c(Cl)cccc1Cl	EPAC2 antag inconclusive, EPAC1 antagonist 50µM
CCc1ccc(-n2nc3cc(C)c(N)cc3n2)cc1	Rango-impB inh inconclusive, Rango release inh inconclusive, EPAC1 antagonist inconclusive
Cc1ccc(-n2nc3cc(C)c(N)cc3n2)cc1	Rango-impB inh inconclusive, Rango release inh 18µM
COc1ccc(OC(F)(F)F)cc1CC1(C)C(=O)Nc2ccc(-c3ccsc3)cc21 (stereo unspecified)	none (no result: Rango-impB inh, Rango release inh)
Cc1ccc(C2C(C(=O)c3ccco3)=C(O)C(=O)N2c2nnc(C)s2)cc1 (stereo unspecified)	Rango-impB inh inconclusive, Rango release inh inconclusive
O=C(C1=C(O)C(=O)N(c2nc3ccc(Cl)cc3s2)C1c1ccco1)c1ccco1 (stereo unspecified)	Rango-impB inh inconclusive, Rango release inh 16µM, EPAC1 antagonist inconclusive
Cc1cc(C)c2nc(N3C(=O)C(O)=C(C(=O)c4ccco4)C3c3ccc(O)cc3)sc2c1 (stereo unspecified)	Rango-impB inh inconclusive, Rango release inh 26µM, EPAC1 antagonist inconclusive
Cc1nnc(N2C(=O)C(O)=C(C(=O)c3ccco3)C2c2cccc([N+](=O)[O-])c2)s1 (stereo unspecified)	none
Cc1cc(C)c2nc(N3C(=O)C(O)=C(C(=O)c4ccco4)C3c3cccc(O)c3)sc2c1 (stereo unspecified)	Rango-impB inh inconclusive, Rango release inh 4.1µM, EPAC1 antagonist inconclusive
CCOC(=O)c1sc(N2C(=O)C(O)=C(C(=O)c3ccco3)C2c2cccc([N+](=O)[O-])c2)nc1C (stereo unspecified)	Rango-impB inh inconclusive, EPAC1 antagonist 22µM
Cc1ccc2nc(N3C(=O)C(O)=C(C(=O)c4ccc(C)o4)C3c3ccco3)sc2c1 (stereo unspecified)	Rango-impB inh inconclusive, Rango release inh inconclusive
N#CC[C@H](c1ccccc1)N1CCN(Cc2ccccc2)CCC1=O	none
COC(=O)[C@]12CCCCC=C1N(CCc1ccc(OC)c(OC)c1)C(=O)[C@H](CC(=O)N1CCOCC1)C2	none (no result: Rango-impB inh, Rango release inh)
O=C(CSc1nnnn1-c1ccccc1)NCC1(N2CCOCC2)CCCCC1	none
CC(C)n1cc(/C=C/c2cc[n+](C)cc2)c2ccccc21	EPAC1 agonist 100µM, EPAC2 ag inconclusive, Rango-impB inh inconclusive, Rango release inh inconclusive
C=CCn1cc(/C=C/c2cc[n+](C)cc2)c2ccccc21	EPAC1 agonist inconclusive, EPAC2 ag 100µM, Rango-impB inh inconclusive, Rango release inh inconclusive
CCn1cc(/C=C/c2cc[n+](C)cc2)c2ccccc21	EPAC2 ag inconclusive, Rango release inh inconclusive
Nc1ncnc2c1ncn2[C@@H]1O[C@H](CNCc2ccccc2OC2OC(CO)C(O)C(O)C2O)[C@@H](O)[C@H]1O (stereo partly specified)	none
COc1cc(NC(=O)c2cnc(N)s2)cc(C(=O)Nc2cccc(C(F)(F)F)c2)c1	EPAC1 antagonist 40µM
COc1cc(NC(=O)c2ccnc(N)c2)cc(C(=O)Nc2cccc(C(F)(F)F)c2)c1	EPAC1 antagonist 71µM
COc1cc(NC(=O)c2csc(N)n2)cc(C(=O)Nc2cccc(C(F)(F)F)c2)c1	none
COc1cc(NC(=O)c2cnc(N)o2)cc(C(=O)Nc2cccc(C(F)(F)F)c2)c1	none
CCN(CC)CC#CC(OC)(c1ccccc1)c1ccccc1	EPAC2 antag 40µM
CC1(C(=O)NS(=O)(=O)c2ccccc2OC(F)(F)F)CCN1C(=O)Cc1ccccc1 (stereo unspecified)	none (no result: Rango-impB inh, Rango release inh)
O=C(O)c1ccc(N2CCCCCC2)c(N2C(=O)c3ccccc3C2=O)c1	none
O=C1c2cccc3c(N4CCCCC4)ccc(c23)C(=O)N1c1ccccc1O	EPAC1 agonist inconclusive, EPAC2 ag 100µM, Rango-impB inh inconclusive, Rango release inh inconclusive
O=C1c2cccc3c(N4CCCCC4)ccc(c23)C(=O)N1c1ccc(O)cc1	EPAC2 ag 89µM, Rango-impB inh inconclusive, Rango release inh inconclusive
N#Cc1c(N2CCOCC2)nc(N2CCCCC2)c2c1CCN(C1CCCCC1)C2	Rango-impB inh inconclusive, Rango release inh 23µM
O=C(O)CCc1ccc(-c2cccs2)n1CC1CCCO1 (stereo unspecified)	Rango-impB inh inconclusive, Rango release inh 5.2µM
O=C(O)CCc1ccc(-c2ccc(F)cc2)n1CC1CCCO1 (stereo unspecified)	none
COc1cccc(CC(=O)Nc2nc(-c3cccnc3)cs2)c1	none
COc1ccc(CC(=O)Nc2nc(-c3cccnc3)cs2)cc1	EPAC1 antagonist 13µM
Cn1c(SCC(=O)Nc2cccc(C(=O)O)c2)nnc1-c1cc2cc(Br)ccc2o1	EPAC1 agonist 63µM, EPAC1 antagonist 35µM
Cn1c(SCC(=O)Nc2cccc(Br)c2)nnc1-c1cc2ccccc2o1	none
COc1ccc(CN2C(=O)CN(S(C)(=O)=O)CC2(C)C(=O)NC(C)C)cc1 (stereo unspecified)	none (no result: Rango-impB inh, Rango release inh)
N#C/C(=C/C1=C(N2CCOCC2)C(=C/c2cccc([N+](=O)[O-])c2)/CC1)C(=O)Nc1ccccc1F	EPAC2 antag 79µM
N#C/C(=C\C1=C(N2CCOCC2)C(=C/c2cccc([N+](=O)[O-])c2)/CC1)C(=O)Nc1ccccc1F	EPAC2 antag inconclusive
CCOC(=O)[C@]12CCCC=C1N(Cc1cccc3ccccc13)C(=O)[C@H](CC(=O)N1CCCC1)C2	none (no result: Rango-impB inh, Rango release inh)
O=C1NC(=O)C2(N1)c1ccccc1-c1ccccc12	none
O=C1NC(=O)C2(N1)C(=O)c1cccc3cccc2c13 (stereo unspecified)	EPAC1 agonist 112µM, EPAC2 ag inconclusive (no result: Rango-impB inh, Rango release inh)
COC(=O)C1=CN(c2ccc(C(C)(C)C)cc2)C(N)=C(C#N)C1c1ccccc1F (stereo unspecified)	none (no result: Rango-impB inh, Rango release inh)
CNc1nc(N/N=C/c2cc3c(cc2[N+](=O)[O-])OCO3)nc(Nc2ccccc2)n1	Rango-impB inh 65µM
CCCCN(C=O)c1c(CC)nc2c(OCC(=O)c3ccc(F)cc3)cccn12	none (no result: Rango-impB inh, Rango release inh)
Cc1ccc(F)c(S(=O)(=O)NC(=O)C2(C)CCN2C(=O)Cc2ccsc2)c1 (stereo unspecified)	none (no result: Rango-impB inh, Rango release inh)
Clc1cccc(Cl)c1C1Nc2cccc3cccc(c23)N1	EPAC2 antag 56µM, EPAC1 antagonist inconclusive
